Data: patent US11312701B2, “Formylpyridine derivative having FGFR4 inhibitory activity, preparation method therefor and use thereof” (Abbisko Therapeutics Co., Ltd., priority 2017, dated 2022)

Test system: Huh7 hepatocellular carcinoma cells
Assay: Cell Titer Glo (CTG) cell proliferation experiment
Assay type: cell-based
Conditions: read-out: Cell activity HuH-7 EC50, HuH-7 cells, 3 days, concentration leading to half maximal growth inhibition

- EC50: 238 nM
SMILES: COCCNc1cc(NC(=O)N(C)c2ccc(CN3CCN(C)CC3=O)c(C=O)n2)ncc1C#N
